Measured values: patent publication US8188306B2, “Heat shock protein 90 inhibitors” (University of Kansas, priority 2004, dated 2012)
Like-named read-outs stand apart in the source and are kept apart here.

Amino acid sequences for entries named in this document (tags omitted).
UniProt P02829, whole entry: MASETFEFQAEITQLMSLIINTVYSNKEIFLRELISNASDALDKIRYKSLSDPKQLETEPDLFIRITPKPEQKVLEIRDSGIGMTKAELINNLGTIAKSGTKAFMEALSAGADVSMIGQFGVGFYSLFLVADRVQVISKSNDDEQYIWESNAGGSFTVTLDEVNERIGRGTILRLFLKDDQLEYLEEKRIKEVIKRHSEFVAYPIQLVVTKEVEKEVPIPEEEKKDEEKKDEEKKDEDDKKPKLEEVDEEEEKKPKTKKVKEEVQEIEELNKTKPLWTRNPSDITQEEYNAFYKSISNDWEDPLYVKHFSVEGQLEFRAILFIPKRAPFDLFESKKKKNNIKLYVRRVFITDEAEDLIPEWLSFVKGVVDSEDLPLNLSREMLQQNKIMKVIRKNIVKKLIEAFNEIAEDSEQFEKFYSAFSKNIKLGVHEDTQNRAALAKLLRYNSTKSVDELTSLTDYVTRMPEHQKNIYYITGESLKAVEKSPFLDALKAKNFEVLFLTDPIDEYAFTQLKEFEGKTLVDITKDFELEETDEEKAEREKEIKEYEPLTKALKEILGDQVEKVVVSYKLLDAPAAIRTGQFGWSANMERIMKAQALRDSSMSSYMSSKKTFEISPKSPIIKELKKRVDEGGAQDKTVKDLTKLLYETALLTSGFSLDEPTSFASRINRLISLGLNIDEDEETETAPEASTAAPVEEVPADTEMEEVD

Key:
Recombinant yeast Hsp90 = Recombinant yeast Hsp90 (Saccharomyces cerevisiae, UniProt P02829); experiment: Inhibition of Hsp90 ATPase activity, production of inorganic phosphate; format: biochemical
[1] = tested on: Hsp90-dependent client proteins, Raf and HER-2; experiment: Western Blot of Hsp90-dependent client proteins in MCF-7 breast cancer cells; details: increasing concentrations
[2] = read-out: IC50 (μm), incubated with ATP, table
[3] = read-out: IC50 / inhibitory activity, incubated with ATP

COC(=O)c1c(O)cc(O)c(Cl)c1CCC(=O)Nc1cc(OC)c(OC)cc1OC
IC50 (Recombinant yeast Hsp90; [2]): > 40 µM
IC50 (Recombinant yeast Hsp90; [3]): > 40 µM

COC(=O)c1c(O)cc(O)c(Cl)c1CCC(=O)Nc1cc(O)c(OC)cc1O
IC50 (Recombinant yeast Hsp90; [2]): 1.8 µM
IC50 (Recombinant yeast Hsp90; [3]): 5.9 µM
Hsp90-dependent client proteins Raf and HER-2 by Western Blot [1]: decrease
